Where two headings read alike, the source gives them in different places.
Experiments:
[1] = Method: (§1) In the testing provided below, “soluble” (or “solubilize”), in relation to the solubility of a solid solute being tested, means that no visible crystals may be seen after a prescribed storage period at a storage condition. The storage period can vary. Suitable storage periods include about 24 hours, about 1 week, and about 30 days. Suitable storage conditions include ambient conditions or cold storage at 5° C. (approximately 1 atm). In certain embodiments, solubility may be determined after a 24 hour storage period at ambient conditions. In other embodiments, solubility may be determined after 20 days in cold storage. Other testing parameters may include storage for prolonged time periods (e.g., 30 day, 50 days, 60 days, 90 days) and at variable temperatures (e.g., 5° C., 50° C.).
The solvency of an isosorbide diester within the scope of the present invention was tested against two conventional, industry standard solvents. […] Various ratios of the solute:solvent were prepared by mixing solvents and the solid sunscreen (solute) and heating to 70° C. Upon reaching 70° C., the examples may be mixed for about 10 minutes. The mixtures are placed in a covered vial and cooled to the storage temperature. Solubility was evaluated for samples stored 24 hours after mixing at room temperature. […]

[2] = remark: listed apart in the source
Method: as §1
The solvency of an isosorbide diester within the scope of the present invention was tested against two conventional, industry standard solvents. […] Solubility was also evaluated for samples stored for 7 day at 5° C. followed by equilibration to ambient conditions.

C12-15 alkyl benzoate
S: Solubility at Solute:Solvent Ratio 1:3 [1] | Solubility at Solute:Solvent Ratio 1:4 [1] | Solubility at Solute:Solvent Ratio 1:4 [2] | Solubility at Solute:Solvent Ratio 1:6 [2] | Solubility at Solute:Solvent Ratio 1:8 [2]
